The target in the assay is T1, Human TYK2 (Homo sapiens, UniProt P29597).
T1 construct: purchased Millipore, Germany
In words: In-vitro kinase inhibition test, TYK2. The format is biochemical. Particulars: for inhibition at 1 µM: read-out: TYK2 kinase-phosphorylation inhibitory level (% inhibition).

The chains behind the UniProt entries cited, without tags or fusion partners. Where a name states a change or a piece, a line headed by the entry shows the natural chain unless it says otherwise.
UniProt P29597: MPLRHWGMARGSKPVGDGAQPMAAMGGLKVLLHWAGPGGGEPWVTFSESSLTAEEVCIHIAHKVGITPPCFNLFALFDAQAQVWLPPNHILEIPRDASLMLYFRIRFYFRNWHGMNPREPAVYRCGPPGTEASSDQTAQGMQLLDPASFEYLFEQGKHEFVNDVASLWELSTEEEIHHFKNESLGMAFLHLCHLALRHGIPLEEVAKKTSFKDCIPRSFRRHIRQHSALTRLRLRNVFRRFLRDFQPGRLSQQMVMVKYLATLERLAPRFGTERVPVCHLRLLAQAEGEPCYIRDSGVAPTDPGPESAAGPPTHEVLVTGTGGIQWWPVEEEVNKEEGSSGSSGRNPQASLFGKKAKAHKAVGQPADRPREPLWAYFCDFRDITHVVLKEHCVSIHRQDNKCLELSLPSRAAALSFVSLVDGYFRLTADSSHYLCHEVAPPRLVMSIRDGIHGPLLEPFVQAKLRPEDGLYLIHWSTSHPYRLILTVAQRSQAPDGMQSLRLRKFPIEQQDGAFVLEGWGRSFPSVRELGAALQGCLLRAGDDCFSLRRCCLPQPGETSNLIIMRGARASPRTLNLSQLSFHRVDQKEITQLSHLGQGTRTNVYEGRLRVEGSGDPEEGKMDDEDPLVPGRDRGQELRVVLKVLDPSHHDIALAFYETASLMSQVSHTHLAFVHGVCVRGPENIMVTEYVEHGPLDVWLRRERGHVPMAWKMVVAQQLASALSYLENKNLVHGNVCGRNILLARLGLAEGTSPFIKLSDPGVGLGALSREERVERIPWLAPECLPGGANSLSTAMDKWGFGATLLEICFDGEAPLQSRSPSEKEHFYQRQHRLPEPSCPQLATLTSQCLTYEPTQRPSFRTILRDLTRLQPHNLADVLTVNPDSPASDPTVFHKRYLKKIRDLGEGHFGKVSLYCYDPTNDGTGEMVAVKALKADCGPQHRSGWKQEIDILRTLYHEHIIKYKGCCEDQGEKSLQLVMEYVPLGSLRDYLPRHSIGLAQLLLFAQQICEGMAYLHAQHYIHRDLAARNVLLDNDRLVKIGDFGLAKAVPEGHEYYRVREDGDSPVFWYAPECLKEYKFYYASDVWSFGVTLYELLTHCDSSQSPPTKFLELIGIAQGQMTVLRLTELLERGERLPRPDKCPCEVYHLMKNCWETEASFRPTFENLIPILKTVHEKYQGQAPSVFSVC

Molecules are shown by their SMILES.

Broadly, the inhibition is the percentage by which the read-out fell short of the control. The IC50 is the concentration at which inhibition is half-maximal. Higher therefore signals weaker potency in that assay.

Turning to `CN(c1ncnc2[nH]ccc12)[C@H]1CCN(C(=O)CC#N)C1` [Example 31, (S)-3-(3-(methyl(7H-pyrrolo[2,3-d]pyrimidine-4-yl)amino)pyrrolidine-1-yl)-3-oxopropanenitrile], the inhibition at 1 µM came out at 2%. Turning to `CN(c1ncnc2[nH]ccc12)[C@@H]1CCN(C(=O)CC#N)C1` [Example 1, (R)-3-(3-(methyl(7H-pyrrolo[2,3-d]pyrimidine-4-yl)amino)pyrrolidine-1-yl)-3-oxopropanenitrile], the IC50 stood at 111 nM and the inhibition at 1 µM was 84%.

These data come from US10407430B2, “Janus kinase 1 selective inhibitor and pharmaceutical use thereof” (YANG JI CHEMICAL CO., LTD., priority 2015, dated 2019).
